Among the data in patent publication US7195758 are decrease in T cell proliferation in primary MLR with CD4+ T cells, stimulators CD40-B cells from day 15 and decrease in T cell proliferation in primary MLR with CD4+ T cells, stimulators unstimulated B cells and CD40-B cells activated only for short terms values, retold here.

Chains of the proteins cited; added tags and fusions are not shown. Residues count along the entry.
UniProt P42081, 24-329: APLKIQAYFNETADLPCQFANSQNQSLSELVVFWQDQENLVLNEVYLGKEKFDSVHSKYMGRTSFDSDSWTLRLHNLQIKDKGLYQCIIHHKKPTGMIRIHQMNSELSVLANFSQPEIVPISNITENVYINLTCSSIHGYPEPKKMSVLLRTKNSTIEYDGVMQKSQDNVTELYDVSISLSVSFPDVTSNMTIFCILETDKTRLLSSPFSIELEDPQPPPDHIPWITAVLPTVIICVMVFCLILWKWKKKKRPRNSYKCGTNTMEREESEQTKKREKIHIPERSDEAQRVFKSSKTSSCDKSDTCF

In one assay the target is CD80 (B7-1) (human) (UniProt P33681). Put plainly: cell-based or functional assay.
For the next assay, the target named is CD86 (B7-2) (human) (UniProt P42081). Description: cell-based or functional assay.

Consider “CTLA4-Ig (from UniProt P16410 38-161) (Fc fusion)”, for which the decrease in T cell proliferation in primary MLR with CD4+ T cells, stimulators CD40-B cells from day 15 in the assay with CD80 (B7-1) (human) and in the assay with CD86 (B7-2) (human) was 75% each time. In addition, the decrease in T cell proliferation in primary MLR with CD4+ T cells, stimulators unstimulated B cells and CD40-B cells activated only for short terms with CD80 (B7-1) (human) and in the assay with CD86 (B7-2) (human) was above 95% throughout.
